Measurements from patent US6773705B1, “Methods for diagnosing and treating autoimmune disease” (General Hospital Corporation, priority 1998, dated 2004).

System: NF-κB
Experiment: EMSA of NF-κB DNA-binding activity in nuclear extracts of TNF-α-treated spleen cells
Conditions: NOD mouse spleen cells; TNF-α 10 or 25 ng/ml; FIG. 8B

Substance: TNF-α
- NF-κB activation: little effect
